Screening results from PubChem BioAssay.
The list is not random: actives were taken first. Their share in the collection is about 16%.
TDP1 inh = inhibitors of human tyrosyl-DNA phosphodiesterase TDP1; Q9NUW8; recombinant TDP1, AlphaScreen DNA substrate cleavage; Potency, µM (highest dose often 130 µM), inactives show top-dose activity change, negative = inhibition, actives largely listed as inhibitors; 0.28% of 350,000 active; also: potency is read from the fitted curve at half-maximal effect; % is scaled to controls: 0 for no effect and ±100 for the full control effect; nearly all actives have a fitted effect of over 40% in size
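Recombinant E. coli-expressed Tdp1 (1 nM) preincubated with compound 15 min at RT, then 5'-biotin/3'-phosphotyrosine-FITC DNA substrate (15 nM) added for 5 min. AlphaScreen beads (10 ug/ml) added, 10 min RT; tyrosine-FITC cleavage read as signal loss.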
uPA generation = blocks generation of uPA at the cell surface | 0.31% of 330,000 active | Potency, µM (doses to about 38.3 µM), for the others: at the top dose activity change, negative = inhibition, most hits filed as inhibitors | cell surface uPA generation assay, qHTS; active = well fitted inhibition curve with a large enough effect; inconclusive = small, poorly fitted or top-dose-only effect; inactive = no such curve, though single readings can be large or run the other way; tested in mouse RAW 264.7 cells; also: potency is read from the fitted curve at half-maximal effect; % is scaled to controls: 0 for no effect and ±100 for the full control effect; nearly all actives have a fitted effect of over 55% in size
TDP1 cell noCPT = qHTS for Inhibitors of human tyrosyl-DNA phosphodiesterase 1 (TDP1): qHTS in cells in absence of CPT. DT40 Tdp1-/- hTDP1 cells, no CPT, ATP luminescence, 48 h. Potency, µM (doses to about 46.2 µM), for the others: at the top dose activity change, negative = growth inhibition, usual class: inhibitors. 15% of 420,000 active; also: potency is read from the fitted curve at half-maximal effect; % is scaled to controls: 0 for no effect and ±100 for the full control effect; nearly all actives have a fitted effect of over 55% in size
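Stably hTDP1-transfected Tdp1-null chicken DT40 cells were treated with library compounds minus camptothecin and grown for at least 48 hr at 37 °C, after which cellular ATP was quantified by luminescence.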
TDP1 cell CPT = DT40-hTDP1 cell growth loss with CPT. chicken DT40 Tdp1-/-;hTDP1 cells + 20 nM CPT, ATP luminescence, 48 h. Potency, µM (highest dose often 46.2 µM), without a hit: at the top dose activity change, negative = growth inhibition, actives largely listed as inhibitors. 12% of 420,000 active. AID 686979; also: potency is read from the fitted curve at half-maximal effect; % is scaled to controls: 0 for no effect and ±100 for the full control effect; nearly all actives have a fitted effect of over 55% in size
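Cell growth measured by CellTiter-Glo luminescence after a minimum 48 h, 37 C compound exposure with 20 nM CPT in Tdp1-knockout DT40 cells stably expressing hTDP1, seeded 400/well; qHTS titration format.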
miR-21 FLuc = miR-21 reporter, rising signal | HeLa miR-21 FLuc reporter, luciferase, 48 h | Potency, µM (top dose mostly 38.3 µM), inactives show at the highest dose reporter change, positive = more light | 340,000 tested, under 10 active | AID 2288; active = well fitted rising curve with a large enough effect; inconclusive = small, poorly fitted or top-dose-only effect; inactive = no such curve, though single readings can be large or run the other way;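 note: % of control where 0% means no effect; miR-21 action dims this reporter so a rising signal means less miR-21 action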
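Compounds were titrated across several concentrations (up to approximately 40 uM) and incubated 48 hours with HeLa miR-21-FLuc reporter cells (miR-21 target sequence downstream of FLuc, endogenous miR-21). Readout was firefly luciferase luminescence after lytic detection reagent.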
Active calls of the source: *; ? = inconclusive; nt = not tested or not shown. Unless noted, calls follow the shape of the dose curve; as a rule, active = well fitted curve in the direction sought with a large enough effect; inconclusive = small, poorly fitted or top-dose-only effect, or another doubt; inactive = no such curve, though single readings can be large; an effect the other way counts as inactive or inconclusive.

Values run as follows: TDP1 cell noCPT, uPA generation, TDP1 cell CPT, miR-21 FLuc, TDP1 inh
- COC(=O)CSc1nc2sc3c(c2c(=O)n1-c1ccc(C)cc1)CC(C(C)C)OC3 (configuration not stated)
→ nt, nt, nt, -4.6%, nt
- CC(C)Cc1nc2sc3c(c2c(=O)n1N)CC(C(C)C)OC3 (configuration not stated)
→ 2.59µM*, 0.0%, 16.4µM*, -2.5%, -1.4%
- CC(C)C1Cc2c(sc3ncnc(NN)c23)CO1 (configuration not stated)
→ 11.6µM*, -3.2%, 8.2µM*, -1.4%, nt
- Cc1ccc(C(C)C)c(OCC(=O)Nc2cc(-c3nc4ccccc4[nH]3)ccc2C)c1
→ 3.66µM*, nt, 4.61µM*, -7.2%, 0.6%
- COc1ccc(Cl)cc1C(=O)NC(=S)Nc1cc(-c2nc3ccccc3[nH]2)ccc1C
→ 14.6µM*, 12.3%, ?, -30.2%, -9.2%
- Cc1ccc(C(C)C)c(OCC(=O)Nc2ccccc2N2CCN(C)CC2)c1
→ 14.6µM*, 16.9%, ?, 2.7%, -6.6%
- Cc1ccc(C(C)C)c(OCC(=O)Nc2ccc(N3CCOCC3)cc2N2CCOCC2)c1
→ 18.4µM*, 20.0%, 23.1µM*, nt, 1.4%
- Cc1ccc2nc3c(cc(C#N)c(=O)n3CC3CCCO3)c(=O)n2c1 (configuration not stated)
→ nt, nt, nt, 0.8%, -3.1%
- CCCC/C=C/C(NC(=O)Oc1cccc(C(F)(F)F)c1)c1ccccc1 (configuration not stated)
→ nt, nt, nt, nt, -5.1%
- CC1CN(C(=O)N2c3ccccc3Sc3ccccc32)CC(C)O1 (configuration not stated)
→ 11.6µM*, 4.0%, 11.6µM*, -1.5%, -2.7%
- O=C(CN1CCOCC1)N1c2ccccc2Sc2ccccc21
→ 15.3%, -1.0%, -3.4%, 1.0%, nt
- O=C(N1CCOCC1)N1c2ccccc2Sc2ccccc21
→ 23.1µM*, -12.9%, ?, 10.3%, 4.8%
- CC1CCCN(C(=O)N2c3ccccc3Sc3ccccc32)C1 (configuration not stated)
→ 13µM*, nt, ?, 14.1%, 2.0%
- Cc1ccccc1-c1nc(SCC(=O)NCC2CCCO2)c2c(=O)n(C)c(=O)n(C)c2n1 (configuration not stated)
→ -4.9%, nt, -9.2%, -1.7%, 2.7%
- O=C(NCCOc1ccccc1)C1CCC(=O)N(Cc2ccc(Cl)cc2)C1 (configuration not stated)
→ -3.6%, 9.3%, -9.7%, -0.1%, 3.9%
- CCCCCCNC(=O)C(=O)NCCc1ccc(Cl)cc1
→ ?, -2.5%, 2.7%, 5.4%, -5.1%
- CCCc1nc2ccc(NC(=O)NCCC(=O)OCC)cc2c(=O)n1Cc1ccc(Cl)cc1
→ ?, -1.4%, ?, -10.2%, 5.5%
- CCCOc1ccc(C(=O)N2CCN(c3ccc(N)cc3Cl)CC2)cc1
→ 20.6µM*, 7.9%, 23.1µM*, 0.3%, 8.7%
- Cc1ccc(C(=O)N2CCN(c3ccc(N4CCOCC4)nn3)CC2)cc1
→ -20.4%, 3.2%, -3.1%, nt, nt
- CCCCOc1ccc(C(=O)N2CCN(c3ccc(N4CCOCC4)nn3)CC2)cc1
→ ?, -3.4%, 23.1µM*, nt, 9.7%
- CCOc1ccc(OCC)c(NS(=O)(=O)c2cn(C)cn2)c1
→ 18.5%, 5.0%, 5.8%, -3.3%, 5.3%
- Fc1ccc(C(CCNCc2ccccn2)c2ccc(Cl)cc2)cc1 (configuration not stated)
→ 18.4µM*, -7.7%, ?, 14.0%, nt
- OC(CNCc1ccccn1)c1ccccc1 (configuration not stated)
→ ?, -2.9%, -7.7%, -1.5%, -4.2%
- CN1CCN(C(=O)c2ccc3c(c2)NC(=O)C(N2CCOCC2)S3)CC1 (configuration not stated)
→ -2.9%, 0.1%, -3.4%, -3.0%, 2.0%
- O=C(NC1CC1)C1CC(=O)N(C2CCCCC2)C1 (configuration not stated)
→ 3.1%, 12.2%, 4.5%, -4.4%, 4.0%
- CCOc1ccc(C(=O)n2cc(C(=O)OC)c3ccccc32)cc1
→ 13µM*, -7.9%, ?, -8.5%, 3.5%
- COc1ccc(C(=O)COC(=O)CN2CC(=O)Oc3ccccc32)cc1Br
→ ?, -8.9%, ?, -17.1%, ?
- Fc1ccc(CNc2ncnc3onc(-c4ccc(F)cc4)c23)cc1
→ 23.1µM*, nt, 18.4µM*, 4.1%, -6.3%
- CCc1ccc(CNc2ncnc3onc(-c4ccc(Cl)cc4)c23)cc1
→ 16.4µM*, nt, -17.3%, -0.3%, -1.3%
- O=C(CCC(=O)NC1CCCCCC1)Nc1nnc(C(F)(F)F)s1
→ -12.6%, nt, -7.7%, -3.0%, -1.0%

Entries of single compounds from above. Values in the order: TDP1 cell noCPT	uPA generation	TDP1 cell CPT	miR-21 FLuc	TDP1 inh
Results for `Fc1ccc(CNc2ncnc3onc(-c4ccc(F)cc4)c23)cc1` = 23.1µM*	nt	18.4µM*	4.1%	-6.3%
Results for `CC(C)C1Cc2c(sc3ncnc(NN)c23)CO1` (configuration not stated) = 11.6µM*	-3.2%	8.2µM*	-1.4%	nt
Results for `CCc1ccc(CNc2ncnc3onc(-c4ccc(Cl)cc4)c23)cc1` = 16.4µM*	nt	-17.3%	-0.3%	-1.3%
Results for `CCOc1ccc(C(=O)n2cc(C(=O)OC)c3ccccc32)cc1` = 13µM*	-7.9%	?	-8.5%	3.5%
Results for `Cc1ccc(C(C)C)c(OCC(=O)Nc2ccccc2N2CCN(C)CC2)c1` = 14.6µM*	16.9%	?	2.7%	-6.6%

New compounds follow
Values run as follows: TDP1 cell noCPT, uPA generation, TDP1 cell CPT, miR-21 FLuc, TDP1 inh
- CCN1CCN(CNC(=O)c2cnccn2)CC1
→ -0.3%, 9.6%, 18.4µM*, -3.1%, 9.1%
- O=C(NCN1CCN(c2ccccc2)CC1)c1cnccn1
→ 3.8%, -7.5%, -14.5%, -0.2%, nt
- COc1cc(N)c2ncsc2c1
→ -2.2%, 1.2%, -19.5%, nt, nt
- CCSc1nc(-c2ccccc2)nc(C(Cl)Cl)n1
→ 8.2µM*, ?, 1.84µM*, -1.5%, 2.7%
- CCSc1cc(N2CCOCC2)nc(-c2ccccc2)n1
→ -5.8%, 2.9%, -7.9%, -17.0%, -5.1%
- O=C(CCl)N1c2ccccc2OCC1c1ccccc1 (configuration not stated)
→ 2.59µM*, -5.3%, 2.31µM*, -8.5%, -5.3%
- O=C(CN1CCSc2ccccc21)N1CCCCC1
→ nt, nt, nt, -0.6%, 1.8%
- O=C(CCl)N1c2ccccc2SCC1c1ccccc1 (configuration not stated)
→ 3.26µM*, -17.6%, 2.59µM*, ?, ?
- CN1CCN(c2ccc(CNS(=O)(=O)c3ccc(F)cc3Cl)cc2)CC1
→ ?, -2.9%, 18.4µM*, -4.3%, 1.5%
- CN1CCN(c2ccc(CNS(=O)(=O)Cc3ccc(Cl)cc3)cc2)CC1
→ 16.4µM*, 12.1%, ?, -1.3%, 2.9%
- COc1ccc(OC)c(S(=O)(=O)NCc2ccc(N3CCN(C)CC3)cc2)c1
→ -19.5%, -3.4%, -2.6%, -1.1%, 3.4%
- Cc1cc(S(=O)(=O)NCc2ccc(N3CCN(C)CC3)cc2)c(C)s1
→ 20.6µM*, -2.1%, ?, -3.9%, 3.8%
- Cc1cccc(CN2CCOCCS2(=O)=O)c1
→ -13.1%, 5.2%, -1.4%, -3.4%, nt
- CC(C)[C@H](Nc1nc(-c2ccccc2)nc2c1oc1ccccc12)C(=O)O
→ 6.9%, 0.9%, 1.5%, 0.7%, 2.1%
- CC(C)(C)CC(=O)Nc1cccc2c1CCCC2
→ -13.0%, 1.2%, -4.0%, -3.2%, 0.0%
- c1cc2c(c(NCc3ccncc3)c1)CCCC2
→ 11.6µM*, 3.4%, 11.6µM*, 16.4%, 9.4%
- CC(Sc1cccc[n+]1[O-])C(=O)Nc1cc(Cl)c(Cl)cc1Cl (configuration not stated)
→ -28.4%, -2.0%, 12.7%, nt, 0.1%
- Cc1ccccc1CS(=O)(=O)c1cn(CC(=O)N2CCC(C)CC2)c2ccccc12
→ 13µM*, -2.5%, -109.4%, 13.2%, 2.6%
